Apparent affinities of Ab-14 variants for a coronavirus HR2 peptide

Data: MIT Lincoln Laboratory AlphaSeq set, Li et al. 2023, doi:10.1038/s41467-023-39022-2, as distributed in FLAb.

All variants were tested on one target, the spike HR2 peptide PDVDLGDISGINAS (SARS-CoV-2).

The variants keep the heavy chain, the linker and the frameworks of Ab-14 (scFv order VH, a 15-residue (Gly4Ser)3 linker, VL).
VH: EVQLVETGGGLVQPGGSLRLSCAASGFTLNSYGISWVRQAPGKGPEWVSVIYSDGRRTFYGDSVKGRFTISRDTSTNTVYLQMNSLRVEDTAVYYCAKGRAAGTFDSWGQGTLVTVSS
VL: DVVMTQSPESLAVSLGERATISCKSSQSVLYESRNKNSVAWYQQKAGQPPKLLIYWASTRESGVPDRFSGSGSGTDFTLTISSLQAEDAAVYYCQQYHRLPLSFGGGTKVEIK

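The starting antibody came from a phage panning campaign against this peptide. These sequences belong to a second round, designed from the earlier measurements on random variants of the parent. Group labels follow the data file (Ctrl: baseline library sampled from a position-specific scoring matrix, with some repeated check sequences; En: ensemble of fine-tuned language models; GP: Gaussian process model; HC: hill climbing; Gen: genetic algorithm; Gibbs: Gibbs sampling; a sequence that several methods proposed may carry one label only). AlphaSeq pools MATa yeast showing the antibodies with MATalpha yeast showing the peptide. Mating (16 h, 30 °C) was followed by selection of diploids and sequencing of their barcodes. A regression on co-assayed BCL2-family reference pairs converts the normalised counts of each replicate to an apparent Kd. There are six technical replicates.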

Each variant is given by its three light chain CDRs, as the data file delimits them; those of the parent are KSSQSVLYESRNKNSVA, WASTRES, QQYHRLPLS.
This list holds designs with more than six substitutions.
The Kd shown is the geometric mean over detected replicates; a lower Kd is a better binder.
A pair that was not seen in any replicate is written "nd"; this usually means weak binding, but a binder can also be missed.
A sequence measured in both rounds can read differently, since the two assays cover different ranges.
Of ten entries with the parent sequence, four were seen in most replicates (averages 2.2 nM to 240 nM), three in one and three in none, so single entries are noisy.
The authors' rule: three or more of the six replicates give a measured affinity, fewer mean a poor binder.
Background: pairings of all light chain designs with three empty control strains gave a value in 4% of cases (median 430 nM, 5th percentile 38 nM). Values in that range, when seen in few replicates, are hard to tell from nonspecific mating. Also given: how often the same scFv was detected with the empty control strains.

For IVSQLMMWGMHAKNSIA / EAQTRLN / QQYDRLPLF [En_Gen], the assay gave 17 nM (1 of 6 replicates; controls 1 of 18). With KVSYFGEQLTKTGSNVA / DNETRED / QQYFRLPLS [En_Gen] the result was 1.0 nM (6 of 6 replicates; controls 0 of 18). With MISLCQNSYEDANNSIA / DRNERAM / QQYGRLPLV [En_Gibbs] the result was 69 nM (6 of 6 replicates; controls 0 of 18). The variant NIYQAMHTLMQNKDNVA / DVTNRTK / QQYFRLPLS [En_Gen] showed 2.2 nM (6 of 6 replicates; controls 2 of 18). The variant KLQQQELYESRNWNSVA / NASDRQS / QQYHRLPLS [GP_Gibbs] gave 2.4 nM (6 of 6 replicates; controls 0 of 18). For QLLMATMQGAYNRNSVA / HAQTRND / QSYHRLPLS [En_HC], the assay gave 35 nM (6 of 6 replicates; controls 3 of 18). The variant QINHQGLSAALNNRNVA / AKNLRVD / QQYNRLPLS [En_Gibbs] gave 1.0 nM (6 of 6 replicates; controls 0 of 18). The variant RIQDHHAEGEMRHSSIA / EESYRMD / QHYSRLPLA [En_Gibbs] gave 3.6 nM (6 of 6 replicates; controls 0 of 18). For TLSQSMDMTSKNVNSVA / DLTTRGN / QQYHRLPLS [En_HC], the assay gave 2.0 nM (6 of 6 replicates; controls 0 of 18).

The variant KISMSYRYESQEKNSIA / EESTRAE / QSYHRLPLS [En_HC] showed 19 nM (6 of 6 replicates; controls 1 of 18). With KLSQVTNSEHKVKNSIA / EMVTREK / QQYDRLPLI [En_HC] the result was 9.6 nM (6 of 6 replicates; controls 0 of 18). For RIKCRVLEHGGQNNAIA / AAAKLVT / QQYARLPLA [En_Gibbs], the assay gave nd (0 of 6 replicates; controls 0 of 18). The variant KLREIIHVESKQKNNVA / DNSTRES / QDYHRLPLS [En_HC] gave 67 nM (5 of 6 replicates; controls 0 of 18). For MIHESMGLVSHKQSSIA / DNSTRED / QQYDRLPLS [En_Gen], the assay gave 21 nM (6 of 6 replicates; controls 0 of 18). The variant KISMLYNYESTNKNSIA / EMTTRPA / QHYHRLPLS [En_HC] gave 95 nM (3 of 6 replicates; controls 1 of 18). The variant KVSWLHPYWSRNKNSVA / EASTREQ / QQYHRLPLS [GP_Gibbs] showed 3.3 nM (6 of 6 replicates; controls 1 of 18). The variant VLHNTCSDYDMYRNSIA / DAQHREN / QQYYRLPFT [En_Gibbs] showed 2.7 nM (6 of 6 replicates; controls 2 of 18). The variant MVNGIMDHLSKQTNNVA / ETTTRES / QQYDRLPLS [En_Gen] gave 5.4 nM (6 of 6 replicates; controls 0 of 18).

With HVSSMDMEDGGIKKSVA / DMKITER / QQYMRLPLS [En_Gibbs] the result was 2.4 nM (6 of 6 replicates; controls 2 of 18). The variant SLAESQHMESRNKNSVA / DNSTRES / QHYHRLPLS [En_HC] gave nd (0 of 6 replicates; controls 1 of 18). The variant KVQNHSSGTLNDKNAVA / EDKNAAV / QQYVRLPLI [En_Gibbs] showed 240 nM (4 of 6 replicates; controls 1 of 18). With MISQLMNLGQFAINSVA / QATIRNS / QQYDRLPLV [En_Gen] the result was 7.2 nM (6 of 6 replicates; controls 1 of 18). For KLSQGTYGLTGHASNVA / HDEMRWE / QQYHKLPLI [En_Gibbs], the assay gave 910 nM (1 of 6 replicates; controls 0 of 18). The variant MLYGLSVSMSKNTNNVA / EMTTREK / QQYDRLPLI [En_Gen] gave 65 nM (5 of 6 replicates; controls 0 of 18). The variant KLSQEMEYESRNPNSVA / QASERES / QQYHRLPLS [GP_Gibbs] gave 130 pM (6 of 6 replicates; controls 1 of 18). The variant KISMLINQTFESGNNVA / EMATREN / QQYHRLPLS [En_Gen] gave 46 nM (6 of 6 replicates; controls 1 of 18). The variant HITMGMYVSGRHHSNIA / QAETREK / QQYDRLPLI [En_Gen] showed 9.6 nM (6 of 6 replicates; controls 0 of 18).

The variant ALSMMNFYGYRDENGIA / GADELAK / QQYYRLPLV [En_Gibbs] showed 12 nM (6 of 6 replicates; controls 1 of 18). With HIQDARGGLSSQWNSVA / STEERSH / QQYHRLPLS [En_Gibbs] the result was 1.1 nM (6 of 6 replicates; controls 0 of 18). The variant KLFDELSSEQVNARAVA / DALATHE / QQYVMLPLS [En_Gibbs] showed 23 nM (5 of 6 replicates; controls 0 of 18). With KLLQTVLNGRYNRNNVA / HMTMRED / QQYFRLPLS [En_HC] the result was 41 nM (5 of 6 replicates; controls 0 of 18). The variant SLMQVGGYESNNHNSIA / DLRTRER / QQYHRLPLS [En_HC] showed 4.6 nM (6 of 6 replicates; controls 0 of 18). The variant KVSQMVLEESGNKNSVA / NASTRYS / QQYVRLPLS [Ctrl] showed 900 pM (6 of 6 replicates; controls 1 of 18). With IVSQLMLWGMHIKNSVA / EAVTRVN / QQYDRLPLI [En_Gen] the result was 32 nM (2 of 6 replicates; controls 0 of 18). With KQSPQDLQQSRNKNQVA / DASTRES / QQYHRLPLS [GP_Gibbs] the result was 1.1 nM (6 of 6 replicates; controls 0 of 18). The variant MISQSFLIGMKAKNSVA / QTNTREA / QQYDRLPLI [En_HC] showed 1.7 nM (6 of 6 replicates; controls 2 of 18).

The variant QLLMATMQGYYNRNSVA / HAETRED / QSYHRLPLS [En_HC] showed 76 nM (6 of 6 replicates; controls 0 of 18). With SLMQVGGYESNNKHSIA / DLRTRES / QQYHRLPLS [En_HC] the result was 2.5 nM (6 of 6 replicates; controls 1 of 18). For QLKTEVIDNQQLRNSIA / ENELRAM / QQYLMLPLS [En_Gibbs], the assay gave 6.2 nM (6 of 6 replicates; controls 2 of 18). With KLSMSVDYMSATHSSVA / QTTTREE / QQYHRLPLS [En_HC] the result was 2.7 nM (6 of 6 replicates; controls 1 of 18). The variant TISQITSLFSQTINNVA / EVSTRET / QQYDRLPLS [En_Gen] gave 16 nM (6 of 6 replicates; controls 2 of 18). The variant QLSSITGHLSVEKNNVA / EMETREN / QQYDRLPLS [En_Gen] gave 7.6 nM (6 of 6 replicates; controls 0 of 18). For KLQMSEMQESRWCNSVA / QASTREE / QQYHRLPLS [GP_Gibbs], the assay gave 2.6 nM (6 of 6 replicates; controls 2 of 18).

The opening 4 entries, copied out:

| CDR-L1 | CDR-L2 | CDR-L3 | group | Kd (apparent) | detected | empty controls |
|---|---|---|---|---|---|---|
| IVSQLMMWGMHAKNSIA | EAQTRLN | QQYDRLPLF | En_Gen | 17 nM | 1 of 6 | 1 of 18 |
| KVSYFGEQLTKTGSNVA | DNETRED | QQYFRLPLS | En_Gen | 1.0 nM | 6 of 6 | 0 of 18 |
| MISLCQNSYEDANNSIA | DRNERAM | QQYGRLPLV | En_Gibbs | 69 nM | 6 of 6 | 0 of 18 |
| NIYQAMHTLMQNKDNVA | DVTNRTK | QQYFRLPLS | En_Gen | 2.2 nM | 6 of 6 | 2 of 18 |